pKd: −log10 of the molar value.

A word on the pKd: it is the Kd on a negative log10 scale, so that one unit is a factor of ten.

The test system of one experiment is Gli-1 and c-Myc. Description: Western blot of Gli-1 and c-Myc in SUFU-KO-Light cells. The class given is cell-based. (In general: In western blotting, separated proteins are transferred to a membrane and probed.)
Experiment [1] concerns human initiator tRNA (iMet-tRNA anticodon domain). Description: Binding to initiator tRNA (NMR, preliminary biochemical assays).

Regarding `CN(C)CCCn1c(N)nc2ccc3c(c21)CC(CN(C)C)O3` (racemic), in the experiment on Gli-1 and c-Myc, the “C-Myc mRNA levels” value is “increase slightly”. As for `CN(C)CCCn1c(N)nc2ccc3c(c21)CC(CN(C)C)O3` (centres unmarked), the negative-log Kd (pKd) in experiment [1] was 6.00.

Source of the values: patent publication US12227512B2, “Benzimidazoles and methods of using same” (priority 2019, dated 2025).
